# Permeability data for macrocyclic peptides

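The data file gives no further conditions (lipid, pH, time, direction or concentration), and values from different papers need not be comparable. The list need not hold all peptides of the study. Entries at the database's floor value (log10 P of -10) are not listed.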

PAMPA is the parallel artificial membrane permeability assay, which has no cells and reads passive diffusion.
MDCK: transport across canine kidney epithelial cells.
Values are log10 P with P in cm/s, so -5 is more permeable than -7.
"–" marks a cell with nothing listed here.

compound	PAMPA (log10 cm/s)	MDCK (log10 cm/s)
CC(=O)N1CCC[C@@H]1C(=O)N(C)[C@H](CC(C)C)C(=O)N[C@@H]1C(=O)N[C@@H](CC(C)C)C(=O)N[C@@H](CC(C)C)C(=O)N[C@@H](CC(C)C)C(=O)N[C@@H](C)C(=O)N[C@H](CC(C)C)C(=O)N2CCC[C@@H]2C(=O)O[C@@H]1C	-8.40	–
CC(=O)N1CCC[C@@H]1C(=O)N(C)[C@@H](CC(C)C)C(=O)N[C@@H]1C(=O)N[C@H](CC(C)C)C(=O)N[C@@H](CC(C)C)C(=O)N(C)[C@H](CC(C)C)C(=O)N(C)[C@@H](C)C(=O)N[C@H](CC(C)C)C(=O)N2CCC[C@H]2C(=O)O[C@@H]1C	-5.37	–
CC(=O)N1CCC[C@@H]1C(=O)N(C)[C@@H](CC(C)C)C(=O)N[C@@H]1C(=O)N(C)[C@@H](CC(C)C)C(=O)N(C)[C@H](CC(C)C)C(=O)N(C)[C@@H](CC(C)C)C(=O)N(C)[C@H](C)C(=O)N[C@@H](CC(C)C)C(=O)N2CCC[C@H]2C(=O)O[C@@H]1C	-5.51	–
CC(=O)N1CCC[C@H]1C(=O)N(C)[C@@H](CC(C)C)C(=O)N[C@@H]1C(=O)N[C@@H](CC(C)C)C(=O)N(C)[C@H](CC(C)C)C(=O)N(C)[C@H](CC(C)C)C(=O)N(C)[C@H](C)C(=O)N[C@H](CC(C)C)C(=O)N2CCC[C@@H]2C(=O)O[C@@H]1C	-6.13	–
CC(=O)N1CCC[C@@H]1C(=O)N(C)[C@H](CC(C)C)C(=O)N[C@@H]1C(=O)N[C@@H](CC(C)C)C(=O)N[C@H](CC(C)C)C(=O)N(C)[C@H](CC(C)C)C(=O)N(C)[C@@H](C)C(=O)N[C@H](CC(C)C)C(=O)N2CCC[C@H]2C(=O)O[C@@H]1C	-5.99	–
CC(=O)N1CCC[C@H]1C(=O)N(C)[C@@H](CC(C)C)C(=O)N[C@@H]1C(=O)N[C@H](CC(C)C)C(=O)N(C)[C@H](CC(C)C)C(=O)N[C@H](CC(C)C)C(=O)N(C)[C@H](C)C(=O)N[C@H](CC(C)C)C(=O)N2CCC[C@@H]2C(=O)O[C@@H]1C	-6.93	–
CC(=O)N1CCC[C@H]1C(=O)N[C@@H]1C(=O)N[C@H](CC(C)C)C(=O)N[C@H](CC(C)C)C(=O)N(C)[C@H](CC(C)C)C(=O)N(C)[C@@H](CC(C)C)C(=O)N(C)[C@@H](C)C(=O)N[C@@H](CC(C)C)C(=O)N2CCC[C@@H]2C(=O)O[C@@H]1C	-5.74	–
CC(=O)N1CCC[C@H]1C(=O)N(C)[C@@H](CC(C)C)C(=O)N[C@@H]1C(=O)N(C)[C@H](CC(C)C)C(=O)N[C@@H](CC(C)C)C(=O)N(C)[C@@H](CC(C)C)C(=O)N(C)[C@H](C)C(=O)N[C@H](CC(C)C)C(=O)N2CCC[C@H]2C(=O)O[C@@H]1C	-5.96	–
CC(=O)N1CCC[C@@H]1C(=O)N(C)[C@H](CC(C)C)C(=O)N[C@@H]1C(=O)N[C@H](CC(C)C)C(=O)N(C)[C@H](CC(C)C)C(=O)N[C@@H](CC(C)C)C(=O)N(C)[C@@H](C)C(=O)N[C@H](CC(C)C)C(=O)N2CCC[C@H]2C(=O)O[C@@H]1C	-5.12	–
CC(=O)N1CCC[C@H]1C(=O)N(C)[C@H](CC(C)C)C(=O)N[C@@H]1C(=O)N[C@@H](CC(C)C)C(=O)N(C)[C@H](CC(C)C)C(=O)N[C@H](CC(C)C)C(=O)N(C)[C@H](C)C(=O)N[C@H](CC(C)C)C(=O)N2CCC[C@@H]2C(=O)O[C@@H]1C	-6.40	–
CC(=O)N1CCC[C@@H]1C(=O)N(C)[C@H](CC(C)C)C(=O)N[C@@H]1C(=O)N[C@H](CC(C)C)C(=O)N[C@H](CC(C)C)C(=O)N[C@H](CC(C)C)C(=O)N(C)[C@H](C)C(=O)N[C@H](CC(C)C)C(=O)N2CCC[C@@H]2C(=O)O[C@@H]1C	-6.66	–
CC(=O)N1CCC[C@H]1C(=O)N(C)[C@@H](CC(C)C)C(=O)N[C@@H]1C(=O)N(C)[C@H](CC(C)C)C(=O)N(C)[C@@H](CC(C)C)C(=O)N(C)[C@@H](CC(C)C)C(=O)N(C)[C@@H](C)C(=O)N[C@@H](CC(C)C)C(=O)N2CCC[C@@H]2C(=O)O[C@@H]1C	-5.46	–
CC(=O)N1CCC[C@H]1C(=O)N(C)[C@H](CC(C)C)C(=O)N[C@@H]1C(=O)N[C@H](CC(C)C)C(=O)N(C)[C@@H](CC(C)C)C(=O)N[C@H](CC(C)C)C(=O)N(C)[C@H](C)C(=O)N[C@@H](CC(C)C)C(=O)N2CCC[C@@H]2C(=O)O[C@@H]1C	-5.10	-4.97
CC(=O)N1CCC[C@H]1C(=O)N(C)[C@H](CC(C)C)C(=O)N[C@@H]1C(=O)N[C@H](CC(C)C)C(=O)N(C)[C@H](CC(C)C)C(=O)N[C@@H](CC(C)C)C(=O)N[C@@H](C)C(=O)N[C@H](CC(C)C)C(=O)N2CCC[C@H]2C(=O)O[C@@H]1C	-5.90	–
CC(=O)N1CCC[C@@H]1C(=O)N(C)[C@@H](CC(C)C)C(=O)N[C@@H]1C(=O)N(C)[C@H](CC(C)C)C(=O)N[C@@H](CC(C)C)C(=O)N(C)[C@@H](CC(C)C)C(=O)N(C)[C@@H](C)C(=O)N[C@H](CC(C)C)C(=O)N2CCC[C@H]2C(=O)O[C@@H]1C	-6.17	–
CC(=O)N1CCC[C@H]1C(=O)N[C@@H]1C(=O)N[C@H](CC(C)C)C(=O)N(C)[C@@H](CC(C)C)C(=O)N[C@@H](CC(C)C)C(=O)N(C)[C@H](CC(C)C)C(=O)N[C@@H](C)C(=O)N[C@@H](CC(C)C)C(=O)N2CCC[C@@H]2C(=O)O[C@@H]1C	-5.09	–
CC(=O)N1CCC[C@H]1C(=O)N(C)[C@@H](CC(C)C)C(=O)N[C@@H]1C(=O)N(C)[C@@H](CC(C)C)C(=O)N(C)[C@H](CC(C)C)C(=O)N(C)[C@@H](CC(C)C)C(=O)N(C)[C@H](C)C(=O)N[C@H](CC(C)C)C(=O)N2CCC[C@H]2C(=O)O[C@@H]1C	-5.44	–
CC(=O)N1CCC[C@@H]1C(=O)N(C)[C@@H](CC(C)C)C(=O)N[C@@H]1C(=O)N[C@H](CC(C)C)C(=O)N[C@H](CC(C)C)C(=O)N(C)[C@@H](CC(C)C)C(=O)N(C)[C@@H](C)C(=O)N[C@H](CC(C)C)C(=O)N2CCC[C@H]2C(=O)O[C@@H]1C	-5.95	–
CC(=O)N1CCC[C@@H]1C(=O)N(C)[C@H](CC(C)C)C(=O)N[C@@H]1C(=O)N(C)[C@H](CC(C)C)C(=O)N[C@@H](CC(C)C)C(=O)N[C@@H](CC(C)C)C(=O)N(C)[C@@H](C)C(=O)N[C@@H](CC(C)C)C(=O)N2CCC[C@H]2C(=O)O[C@@H]1C	-6.80	–
CC(=O)N1CCC[C@@H]1C(=O)N(C)[C@H](CC(C)C)C(=O)N[C@@H]1C(=O)N[C@H](CC(C)C)C(=O)N(C)[C@H](CC(C)C)C(=O)N(C)[C@@H](CC(C)C)C(=O)N(C)[C@@H](C)C(=O)N[C@@H](CC(C)C)C(=O)N2CCC[C@@H]2C(=O)O[C@@H]1C	-5.64	–
CC(=O)N[C@@H]1C(=O)N2CCC[C@H]2C(=O)N(C)[C@H](CC(C)C)C(=O)N(C)[C@@H](CC(C)C)C(=O)N(C)[C@H](CC(C)C)C(=O)N(C)[C@@H](CC(C)C)C(=O)N(C)[C@H](C)C(=O)N[C@@H](CC(C)C)C(=O)N2CCC[C@@H]2C(=O)O[C@@H]1C	-5.10	–
CC(=O)N1CCC[C@H]1C(=O)N(C)[C@@H](CC(C)C)C(=O)N[C@@H]1C(=O)N[C@H](CC(C)C)C(=O)N[C@@H](CC(C)C)C(=O)N[C@@H](CC(C)C)C(=O)N(C)[C@@H](C)C(=O)N[C@H](CC(C)C)C(=O)N2CCC[C@H]2C(=O)O[C@@H]1C	-6.04	–
CC(=O)N1CCC[C@H]1C(=O)N[C@@H]1C(=O)N[C@H](CC(C)C)C(=O)N[C@@H](CC(C)C)C(=O)N[C@@H](CC(C)C)C(=O)N(C)[C@@H](CC(C)C)C(=O)N[C@H](C)C(=O)N[C@@H](CC(C)C)C(=O)N2CCC[C@@H]2C(=O)O[C@@H]1C	-6.47	–
CC(=O)N1CCC[C@@H]1C(=O)N(C)[C@@H](CC(C)C)C(=O)N[C@@H]1C(=O)N[C@H](CC(C)C)C(=O)N(C)[C@@H](CC(C)C)C(=O)N(C)[C@H](CC(C)C)C(=O)N[C@@H](C)C(=O)N[C@H](CC(C)C)C(=O)N2CCC[C@H]2C(=O)O[C@@H]1C	-5.40	–

Excerpt, the final 3 entries:

compound	PAMPA (log10 cm/s)	MDCK (log10 cm/s)
CC(=O)N1CCC[C@H]1C(=O)N(C)[C@@H](CC(C)C)C(=O)N[C@@H]1C(=O)N[C@H](CC(C)C)C(=O)N[C@@H](CC(C)C)C(=O)N[C@@H](CC(C)C)C(=O)N(C)[C@@H](C)C(=O)N[C@H](CC(C)C)C(=O)N2CCC[C@H]2C(=O)O[C@@H]1C	-6.04	–
CC(=O)N1CCC[C@H]1C(=O)N[C@@H]1C(=O)N[C@H](CC(C)C)C(=O)N[C@@H](CC(C)C)C(=O)N[C@@H](CC(C)C)C(=O)N(C)[C@@H](CC(C)C)C(=O)N[C@H](C)C(=O)N[C@@H](CC(C)C)C(=O)N2CCC[C@@H]2C(=O)O[C@@H]1C	-6.47	–
CC(=O)N1CCC[C@@H]1C(=O)N(C)[C@@H](CC(C)C)C(=O)N[C@@H]1C(=O)N[C@H](CC(C)C)C(=O)N(C)[C@@H](CC(C)C)C(=O)N(C)[C@H](CC(C)C)C(=O)N[C@@H](C)C(=O)N[C@H](CC(C)C)C(=O)N2CCC[C@H]2C(=O)O[C@@H]1C	-5.40	–

Data: CycPeptMPDB; original report Kelly et al. 2021, doi:10.1021/jacs.0c06115.